We go through 1 compound from ChEMBL document CHEMBL5346948, “Expanding Chemical Probe Space: Quality Criteria for Covalent and Degrader Probes” (J Med Chem, 2023).

For the experiment, the system named is GTPase KRas (Homo sapiens), P01116 [G12C]. The experiment in a line: Binding affinity to KRAS G12 mutant (unknown origin) assessed as kinact/Ki ratio.

As to `CCn1c(-c2cccnc2[C@H](C)OC)c2c3cc(ccc31)N1CCO[C@@H](C[C@H](NC(=O)[C@H](C(C)C)N(C)C(=O)C3(F)CCN(C(=O)C#CC(C)(C)N(C)C)CC3)C(=O)N3CCC[C@H](N3)C(=O)OCC(C)(C)C2)C1`, the Ratio worked out at 289000 s⁻¹ M⁻¹.
